Measured values published in patent US10787444B2, “Compounds for the modulation of myc activity” (Syros Pharmaceuticals, Inc., priority 2015, dated 2020).

Protein sequences, listed by entry. Tags and fused reporters are not part of them.
UniProt P01106, whole entry: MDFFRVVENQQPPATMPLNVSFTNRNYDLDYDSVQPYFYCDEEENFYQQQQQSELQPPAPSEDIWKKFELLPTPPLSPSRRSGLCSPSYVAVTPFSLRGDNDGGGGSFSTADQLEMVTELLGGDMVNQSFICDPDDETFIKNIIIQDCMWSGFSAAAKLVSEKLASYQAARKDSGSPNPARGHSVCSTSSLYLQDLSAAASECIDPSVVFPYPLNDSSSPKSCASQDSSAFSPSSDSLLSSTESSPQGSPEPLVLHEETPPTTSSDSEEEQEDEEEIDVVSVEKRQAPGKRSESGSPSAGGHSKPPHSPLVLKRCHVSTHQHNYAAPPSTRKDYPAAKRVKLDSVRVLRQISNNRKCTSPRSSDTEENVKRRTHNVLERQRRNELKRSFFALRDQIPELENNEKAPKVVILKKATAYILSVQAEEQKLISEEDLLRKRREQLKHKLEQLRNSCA

Legend:
c-Myc/Max/Ebox DNA = c-Myc/Max/Ebox DNA (Homo sapiens, UniProt P01106); experiment: c-Myc/Max/Ebox DNA AlphaScreen Assay; type: binding; settings: read-out: Myc/Max/DNA Activity; Table 2, compounds of FIG. 1; calculated IC50 class
[1] = system: human small lung cancer cell line H2171; experiment: Cell Viability Assay (ATPlite); type: cell-based; settings: read-out: H2171 Activity, Table 2, compounds of FIG. 1, H2171 cells, three days, calculated IC50 class
Protocol: Compounds of the invention were assayed for cell viability using the human small lung cancer cell line H2171 as described in the following protocol. Cells were counted and adjusted to 20,000 cells/mL. Using a Biotek EL406, 50 μL of cells in media were distributed into 384 well white plates from Thermo. Immediately after plating, compound in DMSO was distributed to plates. Compounds were added to plates using a 50 nL 384 well pin transfer manifold on a Janus workstation. Stocks were arrayed in 10 point dose response in DMSO stock in 384 well Greiner compound plates. After the addition of compounds, plates were incubated for three days in a 37° C. incubator. Cell viability was read out using ATPlite from Perkin Elmer. Lyophilized powder was resuspended in lysis buffer and diluted 1:2 with deionized water. 25 μL of this solution was added to each well using the Biotek liquid handler. Plates were incubated for 15 minutes at room temperature before signal was read on an Envision Plate Reader. The data from this assay are summarized in Tables 2 and 3 below (H2171 activity).

| IC50 (c-Myc/Max/Ebox DNA) | IC50 [1] | Structure (SMILES) |
| --- | --- | --- |
| 1000 to 10000 nM | 300 to 1000 nM | O=C(CCNC12CC(C1)C2)Nc1sc2c(c1-c1nc3ccccc3s1)CCNC2 |
| > 10000 nM | < 300 nM | CNc1ncc2cc(-c3ccc4nc(-c5c(NC(=O)CCNCCOC)sc6c5CCNC6)sc4c3)ccc2n1 |
